Source: US20180271995A1, “A PROTEIN CONJUGATE COMPRISING MULTIPLE PHYSIOLOGICALLY ACTIVE POLYPEPTIDES AND AN IMMUNOGLOBULIN FC REGION” (HANMI PHARM. CO., LTD., priority 2015, published 2018)

Target: human GLP-1 receptor (human) (UniProt P43220)
Test: cell-based or functional assay

cAMP assay EC50: 0.03 nmol/L | cAMP assay Relative activity: 100 % vs. Exd4
Substance: imidazo-acetyl exendin-4 (CA-exendin-4) (from UniProt P26349) (peptide)
